In paper PMC10576142, “Intrinsic structural dynamics dictate enzymatic activity and inhibition” (Proceedings of the National Academy of Sciences of the …, 2023):
Values joined by “and” are separate entries in the source; they are usually repeats but may differ in a detail not shown here. Identical values can stand only once. Like-named read-outs stand apart in the source and are kept apart here.

Chains of the proteins cited; added tags and fusions are not shown.
UniProt Q9BY41, whole entry L179A: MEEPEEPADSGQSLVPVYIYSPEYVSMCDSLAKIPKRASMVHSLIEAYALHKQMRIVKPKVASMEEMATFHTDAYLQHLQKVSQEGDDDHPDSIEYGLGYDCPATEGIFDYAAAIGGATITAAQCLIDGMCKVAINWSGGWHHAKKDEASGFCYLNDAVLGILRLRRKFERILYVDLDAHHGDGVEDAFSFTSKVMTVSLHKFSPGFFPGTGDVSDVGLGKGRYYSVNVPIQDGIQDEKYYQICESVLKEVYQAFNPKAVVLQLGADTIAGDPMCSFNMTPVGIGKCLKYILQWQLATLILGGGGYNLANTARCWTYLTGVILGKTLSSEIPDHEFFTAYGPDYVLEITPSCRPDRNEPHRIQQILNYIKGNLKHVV
UniProt Q9BY41, whole entry M274A: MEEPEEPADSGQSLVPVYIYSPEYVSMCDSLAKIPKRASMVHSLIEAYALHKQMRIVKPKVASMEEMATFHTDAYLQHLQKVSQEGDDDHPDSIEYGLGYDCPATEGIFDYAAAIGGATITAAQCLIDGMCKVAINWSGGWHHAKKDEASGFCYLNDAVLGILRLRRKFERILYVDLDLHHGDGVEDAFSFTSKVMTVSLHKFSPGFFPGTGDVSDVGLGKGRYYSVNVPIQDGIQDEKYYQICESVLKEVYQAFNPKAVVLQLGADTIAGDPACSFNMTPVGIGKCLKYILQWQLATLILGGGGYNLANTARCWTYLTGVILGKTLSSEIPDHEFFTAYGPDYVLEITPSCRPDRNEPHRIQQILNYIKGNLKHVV
UniProt Q9BY41, whole entry S39E/M40A: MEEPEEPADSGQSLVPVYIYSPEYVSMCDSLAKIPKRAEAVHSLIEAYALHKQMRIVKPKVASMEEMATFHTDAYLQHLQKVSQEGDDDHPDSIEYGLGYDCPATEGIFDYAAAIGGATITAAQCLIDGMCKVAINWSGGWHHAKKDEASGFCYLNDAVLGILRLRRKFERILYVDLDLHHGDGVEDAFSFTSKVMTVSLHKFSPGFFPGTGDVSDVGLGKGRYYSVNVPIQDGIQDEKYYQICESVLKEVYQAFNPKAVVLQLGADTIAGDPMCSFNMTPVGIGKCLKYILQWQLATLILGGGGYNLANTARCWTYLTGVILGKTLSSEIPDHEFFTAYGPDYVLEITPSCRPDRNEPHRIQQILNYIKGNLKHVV

Assays:
L179A-HDAC8 = L179A-HDAC8 (Homo sapiens, UniProt Q9BY41, L179A)
M274A-HDAC8 = M274A-HDAC8 (Homo sapiens, UniProt Q9BY41, M274A); settings: NMR titration
S39E,M40A-HDAC8 = S39E,M40A-HDAC8 (Homo sapiens, UniProt Q9BY41, M40A/S39E); settings: S39E,M40A-HDAC8 vs wild-type HDAC8
wild-type HDAC8 [1] = biological target: T1, wild-type HDAC8 (Homo sapiens, UniProt Q9BY41)
wild-type HDAC8 [2] = biological target: T1, wild-type HDAC8; settings: V25Cγ2 in TCSA-bound HDAC8

With `CC(/C=C/C(=O)NO)=C\[C@@H](C)C(=O)c1ccc(N(C)C)cc1` [TCSA, trichostatin A] the “Fraction saturated L179A-HDAC8” value (L179A-HDAC8; 90 µm TSA (Fig 3d)) was 0.429, the “Fraction saturated L179A-HDAC8” value (L179A-HDAC8; 180 µm TSA (Fig 3d)) was 0.571 and the “Fraction saturated L179A-HDAC8” value (L179A-HDAC8; 270 µm TSA (Fig 3d)) was 0.664. For the same molecule, the “Fraction saturated L179A-HDAC8” value (L179A-HDAC8; 360 µm TSA (Fig 3d)) was 0.665, the “Fraction saturated L179A-HDAC8” value (L179A-HDAC8; 540 µm TSA (Fig 3d)) was 0.751 and the “Fraction saturated L179A-HDAC8” value (L179A-HDAC8; 720 µm TSA (Fig 3d)) was 0.791. For the same molecule, the “Fraction saturated M274A-HDAC8” value (M274A-HDAC8; Con. Of TSA 105 (unit not given)) was 0.299, the “Fraction saturated M274A-HDAC8” value (M274A-HDAC8; Con. Of TSA 210 (unit not given)) was 0.552 and the “Fraction saturated M274A-HDAC8” value (M274A-HDAC8; Con. Of TSA 315 (unit not given)) was 0.679. The “Fraction saturated M274A-HDAC8” value (M274A-HDAC8; Con. Of TSA 420 (unit not given)) was 0.739, the “Fraction saturated M274A-HDAC8” value (M274A-HDAC8; Con. Of TSA 630 (unit not given)) was 0.776 and the “Fraction saturated M274A-HDAC8” value (M274A-HDAC8; Con. Of TSA 840 (unit not given)) was 0.796. For the same molecule, the “TCSA affinity compared with wild-type HDAC8” value (S39E,M40A-HDAC8) was “No significant difference”, the “Fraction saturated free HDAC8” value (wild-type HDAC8 [1]; 17.5 µm TSA, wild type HDAC8 (Fig 3d)) was 0.450 and the “Fraction saturated free HDAC8” value (wild-type HDAC8 [1]; 35.0 µm TSA, wild type HDAC8 (Fig 3d)) was 0.708. The “Fraction saturated free HDAC8” value (wild-type HDAC8 [1]; 70.0 µm TSA, wild type HDAC8 (Fig 3d)) was 0.838, the “Fraction saturated free HDAC8” value (wild-type HDAC8 [1]; 175.0 µm TSA, wild type HDAC8 (Fig 3d)) was 0.912 and the “Fraction saturated free HDAC8” value (wild-type HDAC8 [1]; NMR titration, wild type HDAC8, Con. Of TSA 17.5 (unit not given)) was 0.450. For the same molecule, the “Fraction saturated free HDAC8” value (wild-type HDAC8 [1]; NMR titration, wild type HDAC8, Con. Of TSA 35.0 (unit not given)) was 0.708, the “Fraction saturated free HDAC8” value (wild-type HDAC8 [1]; NMR titration, wild type HDAC8, Con. Of TSA 70.0 (unit not given)) was 0.838 and the “Fraction saturated free HDAC8” value (wild-type HDAC8 [1]; NMR titration, wild type HDAC8, Con. Of TSA 175.0 (unit not given)) was 0.912. For the same molecule, the R2eff (wild-type HDAC8 [2]; 14.1 T, 278 K, nu_cpmg 66.67 Hz) was 32.498 s⁻¹, the R2eff (wild-type HDAC8 [2]; 14.1 T, 278 K, nu_cpmg 133.33 Hz) was 26.223 s⁻¹ and 27.189 s⁻¹ and the R2eff (wild-type HDAC8 [2]; 14.1 T, 278 K, nu_cpmg 200.00 Hz) was 24.850 s⁻¹. It also gave an R2eff (wild-type HDAC8 [2]; 14.1 T, 278 K, nu_cpmg 266.67 Hz) of 25.697 s⁻¹, an R2eff (wild-type HDAC8 [2]; 14.1 T, 278 K, nu_cpmg 333.33 Hz) of 25.422 s⁻¹ and an R2eff (wild-type HDAC8 [2]; 14.1 T, 278 K, nu_cpmg 400.00 Hz) of 24.058 s⁻¹. It also gave an R2eff (wild-type HDAC8 [2]; 14.1 T, 278 K, nu_cpmg 466.67 Hz) of 25.990 s⁻¹, an R2eff (wild-type HDAC8 [2]; 14.1 T, 278 K, nu_cpmg 533.33 Hz) of 25.379 s⁻¹ and an R2eff (wild-type HDAC8 [2]; 14.1 T, 278 K, nu_cpmg 600.00 Hz) of 24.388 s⁻¹. For the same molecule, the R2eff (wild-type HDAC8 [2]; 14.1 T, 278 K, nu_cpmg 666.67 Hz) was 25.489 s⁻¹, the R2eff (wild-type HDAC8 [2]; 14.1 T, 278 K, nu_cpmg 733.33 Hz) was 24.274 s⁻¹ and the R2eff (wild-type HDAC8 [2]; 14.1 T, 278 K, nu_cpmg 800.00 Hz) was 23.409 s⁻¹. For the same molecule, the R2eff (wild-type HDAC8 [2]; 14.1 T, 288 K, nu_cpmg 133.33 Hz) was 27.625 s⁻¹ and 28.166 s⁻¹, the R2eff (wild-type HDAC8 [2]; 14.1 T, 288 K, nu_cpmg 200.00 Hz) was 23.856 s⁻¹ and the R2eff (wild-type HDAC8 [2]; 14.1 T, 288 K, nu_cpmg 266.67 Hz) was 22.488 s⁻¹. The R2eff (wild-type HDAC8 [2]; 14.1 T, 288 K, nu_cpmg 333.33 Hz) was 21.037 s⁻¹, the R2eff (wild-type HDAC8 [2]; 14.1 T, 288 K, nu_cpmg 400.00 Hz) was 22.085 s⁻¹ and the R2eff (wild-type HDAC8 [2]; 14.1 T, 288 K, nu_cpmg 466.67 Hz) was 21.747 s⁻¹. The R2eff (wild-type HDAC8 [2]; 14.1 T, 288 K, nu_cpmg 533.33 Hz) was 21.611 s⁻¹, the R2eff (wild-type HDAC8 [2]; 14.1 T, 288 K, nu_cpmg 600.00 Hz) was 21.086 s⁻¹ and the R2eff (wild-type HDAC8 [2]; 14.1 T, 288 K, nu_cpmg 666.67 Hz) was 21.297 s⁻¹. For the same molecule, the R2eff (wild-type HDAC8 [2]; 14.1 T, 288 K, nu_cpmg 733.33 Hz) was 21.731 s⁻¹, the R2eff (wild-type HDAC8 [2]; 14.1 T, 288 K, nu_cpmg 800.00 Hz) was 19.951 s⁻¹ and the R2eff (wild-type HDAC8 [2]; 14.1 T, 298 K, nu_cpmg 66.67 Hz) was 37.343 s⁻¹. For the same molecule, the R2eff (wild-type HDAC8 [2]; 14.1 T, 298 K, nu_cpmg 133.33 Hz) was 26.400 s⁻¹ and 26.714 s⁻¹, the R2eff (wild-type HDAC8 [2]; 14.1 T, 298 K, nu_cpmg 200.00 Hz) was 23.363 s⁻¹ and the R2eff (wild-type HDAC8 [2]; 14.1 T, 298 K, nu_cpmg 266.67 Hz) was 21.017 s⁻¹. It also gave an R2eff (wild-type HDAC8 [2]; 14.1 T, 298 K, nu_cpmg 333.33 Hz) of 18.977 s⁻¹, an R2eff (wild-type HDAC8 [2]; 14.1 T, 298 K, nu_cpmg 400.00 Hz) of 18.431 s⁻¹ and an R2eff (wild-type HDAC8 [2]; 14.1 T, 298 K, nu_cpmg 466.67 Hz) of 18.608 s⁻¹. For the same molecule, the R2eff (wild-type HDAC8 [2]; 14.1 T, 298 K, nu_cpmg 533.33 Hz) was 17.449 s⁻¹, the R2eff (wild-type HDAC8 [2]; 14.1 T, 298 K, nu_cpmg 600.00 Hz) was 16.890 s⁻¹ and the R2eff (wild-type HDAC8 [2]; 14.1 T, 298 K, nu_cpmg 666.67 Hz) was 16.824 s⁻¹. The R2eff (wild-type HDAC8 [2]; 14.1 T, 298 K, nu_cpmg 733.33 Hz) was 16.755 s⁻¹, the R2eff (wild-type HDAC8 [2]; 14.1 T, 298 K, nu_cpmg 800.00 Hz) was 17.438 s⁻¹ and the R2eff (wild-type HDAC8 [2]; 18.8 T, 278 K, nu_cpmg 66.67 Hz) was 39.061 s⁻¹. The R2eff (wild-type HDAC8 [2]; 18.8 T, 278 K, nu_cpmg 133.33 Hz) was 32.118 s⁻¹ and 33.502 s⁻¹, the R2eff (wild-type HDAC8 [2]; 18.8 T, 278 K, nu_cpmg 200.00 Hz) was 32.056 s⁻¹ and the R2eff (wild-type HDAC8 [2]; 18.8 T, 278 K, nu_cpmg 266.67 Hz) was 29.457 s⁻¹. The R2eff (wild-type HDAC8 [2]; 18.8 T, 278 K, nu_cpmg 333.33 Hz) was 30.917 s⁻¹, the R2eff (wild-type HDAC8 [2]; 18.8 T, 278 K, nu_cpmg 400.00 Hz) was 30.040 s⁻¹ and the R2eff (wild-type HDAC8 [2]; 18.8 T, 278 K, nu_cpmg 466.67 Hz) was 29.695 s⁻¹. The R2eff (wild-type HDAC8 [2]; 18.8 T, 278 K, nu_cpmg 533.33 Hz) was 28.967 s⁻¹, the R2eff (wild-type HDAC8 [2]; 18.8 T, 278 K, nu_cpmg 600.00 Hz) was 29.134 s⁻¹ and the R2eff (wild-type HDAC8 [2]; 18.8 T, 278 K, nu_cpmg 666.67 Hz) was 28.601 s⁻¹. For the same molecule, the R2eff (wild-type HDAC8 [2]; 18.8 T, 278 K, nu_cpmg 733.33 Hz) was 29.615 s⁻¹, the R2eff (wild-type HDAC8 [2]; 18.8 T, 278 K, nu_cpmg 800.00 Hz) was 29.307 s⁻¹ and the R2eff (wild-type HDAC8 [2]; 18.8 T, 288 K, nu_cpmg 66.67 Hz) was 52.270 s⁻¹. For the same molecule, the R2eff (wild-type HDAC8 [2]; 18.8 T, 288 K, nu_cpmg 133.33 Hz) was 33.997 s⁻¹ and 34.323 s⁻¹, the R2eff (wild-type HDAC8 [2]; 18.8 T, 288 K, nu_cpmg 200.00 Hz) was 28.626 s⁻¹ and the R2eff (wild-type HDAC8 [2]; 18.8 T, 288 K, nu_cpmg 266.67 Hz) was 25.525 s⁻¹. It also gave an R2eff (wild-type HDAC8 [2]; 18.8 T, 288 K, nu_cpmg 333.33 Hz) of 23.878 s⁻¹, an R2eff (wild-type HDAC8 [2]; 18.8 T, 288 K, nu_cpmg 400.00 Hz) of 23.396 s⁻¹ and an R2eff (wild-type HDAC8 [2]; 18.8 T, 288 K, nu_cpmg 466.67 Hz) of 22.481 s⁻¹. For the same molecule, the R2eff (wild-type HDAC8 [2]; 18.8 T, 288 K, nu_cpmg 533.33 Hz) was 22.246 s⁻¹, the R2eff (wild-type HDAC8 [2]; 18.8 T, 288 K, nu_cpmg 600.00 Hz) was 22.668 s⁻¹ and the R2eff (wild-type HDAC8 [2]; 18.8 T, 288 K, nu_cpmg 666.67 Hz) was 22.090 s⁻¹. For the same molecule, the R2eff (wild-type HDAC8 [2]; 18.8 T, 288 K, nu_cpmg 733.33 Hz) was 22.188 s⁻¹, the R2eff (wild-type HDAC8 [2]; 18.8 T, 288 K, nu_cpmg 800.00 Hz) was 22.089 s⁻¹ and the R2eff (wild-type HDAC8 [2]; 18.8 T, 298 K, nu_cpmg 66.67 Hz) was 52.299 s⁻¹. The R2eff (wild-type HDAC8 [2]; 18.8 T, 298 K, nu_cpmg 200.00 Hz) was 31.958 s⁻¹, the R2eff (wild-type HDAC8 [2]; 18.8 T, 298 K, nu_cpmg 266.67 Hz) was 27.699 s⁻¹ and the R2eff (wild-type HDAC8 [2]; 18.8 T, 298 K, nu_cpmg 333.33 Hz) was 24.727 s⁻¹. For the same molecule, the R2eff (wild-type HDAC8 [2]; 18.8 T, 298 K, nu_cpmg 400.00 Hz) was 22.893 s⁻¹, the R2eff (wild-type HDAC8 [2]; 18.8 T, 298 K, nu_cpmg 466.67 Hz) was 21.367 s⁻¹ and the R2eff (wild-type HDAC8 [2]; 18.8 T, 298 K, nu_cpmg 533.33 Hz) was 20.604 s⁻¹. It also gave an R2eff (wild-type HDAC8 [2]; 18.8 T, 298 K, nu_cpmg 600.00 Hz) of 20.442 s⁻¹, an R2eff (wild-type HDAC8 [2]; 18.8 T, 298 K, nu_cpmg 666.67 Hz) of 19.343 s⁻¹ and an R2eff (wild-type HDAC8 [2]; 18.8 T, 298 K, nu_cpmg 733.33 Hz) of 19.099 s⁻¹. The R2eff (wild-type HDAC8 [2]; 18.8 T, 298 K, nu_cpmg 800.00 Hz) was 18.871 s⁻¹.
